Tests used:
human Factor XIa = human Factor XIa (Homo sapiens (Human), UniProt P03951); test: Factor XIa Assay (fluorogenic substrate GPR-AFC); format: biochemical; settings: read-out: FXIa IC50
Human plasma kallikrein = Human plasma kallikrein (Homo sapiens (Human), UniProt P03952); test: Kallikrein Assay (fluorogenic substrate Acetyl-K-P-R-AFC); format: biochemical; settings: read-out: PKal IC50

By UniProt entry, the sequences of proteins in these tests, tags left out. Residues count along the entry.
UniProt P03951, 388-625 limits assumed: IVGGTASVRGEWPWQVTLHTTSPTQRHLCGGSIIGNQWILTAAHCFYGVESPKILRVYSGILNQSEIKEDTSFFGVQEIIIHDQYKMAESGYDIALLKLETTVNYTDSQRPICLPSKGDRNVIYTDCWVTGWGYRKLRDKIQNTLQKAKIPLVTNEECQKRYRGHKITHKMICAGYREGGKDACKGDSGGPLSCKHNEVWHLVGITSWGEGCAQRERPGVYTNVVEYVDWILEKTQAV
UniProt P03951, 19-387 partner limits assumed: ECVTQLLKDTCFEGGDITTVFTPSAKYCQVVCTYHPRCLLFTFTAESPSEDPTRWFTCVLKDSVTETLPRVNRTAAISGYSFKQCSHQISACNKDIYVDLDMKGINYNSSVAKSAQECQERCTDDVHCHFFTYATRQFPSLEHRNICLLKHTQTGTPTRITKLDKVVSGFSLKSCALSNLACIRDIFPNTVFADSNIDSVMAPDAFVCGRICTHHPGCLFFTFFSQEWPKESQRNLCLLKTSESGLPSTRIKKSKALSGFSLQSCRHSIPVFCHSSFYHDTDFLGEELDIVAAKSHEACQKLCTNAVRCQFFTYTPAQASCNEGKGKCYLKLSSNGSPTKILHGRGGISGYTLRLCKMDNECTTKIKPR
UniProt P03952, 391-638 limits assumed: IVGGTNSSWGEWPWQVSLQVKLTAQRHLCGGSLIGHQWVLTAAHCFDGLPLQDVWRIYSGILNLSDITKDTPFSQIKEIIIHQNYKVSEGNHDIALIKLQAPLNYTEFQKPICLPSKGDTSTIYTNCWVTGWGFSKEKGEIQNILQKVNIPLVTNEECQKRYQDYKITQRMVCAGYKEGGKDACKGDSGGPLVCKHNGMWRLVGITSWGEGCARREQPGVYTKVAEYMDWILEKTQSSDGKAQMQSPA
UniProt P03952, 20-390 partner limits assumed: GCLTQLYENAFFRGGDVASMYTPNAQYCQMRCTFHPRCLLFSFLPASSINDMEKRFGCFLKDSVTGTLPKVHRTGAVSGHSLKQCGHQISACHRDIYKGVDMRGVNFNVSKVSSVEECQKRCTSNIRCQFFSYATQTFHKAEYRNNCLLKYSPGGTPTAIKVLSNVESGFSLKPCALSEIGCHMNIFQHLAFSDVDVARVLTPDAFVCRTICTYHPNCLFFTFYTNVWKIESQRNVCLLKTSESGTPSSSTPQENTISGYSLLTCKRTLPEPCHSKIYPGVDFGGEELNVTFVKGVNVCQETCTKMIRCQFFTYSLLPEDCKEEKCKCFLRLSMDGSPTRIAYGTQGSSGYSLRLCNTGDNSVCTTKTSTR

COCc1ncc(-c2c(C(F)F)ccc(Cl)c2F)nc1C(=O)Nc1cnn(C(C)c2cnc(N3C[C@H]4C[C@H]4C3=O)c(C)n2)c1 (single isomer, unassigned) [Example 125, 6-(3-Chloro-6-(difluoromethyl)-2-fluorophenyl)-3-(methoxymethyl)-N-(1-((S or R)-1-(6-methyl-5-((1R,5S)-2-oxo-3-azabicyclo[3.1.0]hexan-3-yl)pyrazin-2-yl)ethyl)-1H-pyrazol-4-yl)pyrazine-2-carboxamide]
IC50 (human Factor XIa): 1.03 µM | IC50 (Human plasma kallikrein): 0.0005 µM

C[C@@H](c1cnc(N2C[C@H]3C[C@H]3C2=O)nc1)n1cc(NC(=O)c2cc(-c3c(C(F)F)ccc(Cl)c3F)c[n+]([O-])c2)cn1
IC50 (human Factor XIa): 1.84 µM | IC50 (Human plasma kallikrein): 0.0036 µM
